Laboratory results reported in PubChem BioAssay AID540263 (National Center for Advancing Translational Sciences (NCATS), 2011).
About 100 (0.029%) of roughly 340,000 compounds were called active. Inconclusive results (about 8%) are left out. The sample holds actives, similar compounds and a random draw of the others, so the mix is not that of the screen. The call rests on the fitted dose curve.

The chains behind the UniProt entries cited, without tags or fusion partners.
UniProt Q14974, whole entry, looked up: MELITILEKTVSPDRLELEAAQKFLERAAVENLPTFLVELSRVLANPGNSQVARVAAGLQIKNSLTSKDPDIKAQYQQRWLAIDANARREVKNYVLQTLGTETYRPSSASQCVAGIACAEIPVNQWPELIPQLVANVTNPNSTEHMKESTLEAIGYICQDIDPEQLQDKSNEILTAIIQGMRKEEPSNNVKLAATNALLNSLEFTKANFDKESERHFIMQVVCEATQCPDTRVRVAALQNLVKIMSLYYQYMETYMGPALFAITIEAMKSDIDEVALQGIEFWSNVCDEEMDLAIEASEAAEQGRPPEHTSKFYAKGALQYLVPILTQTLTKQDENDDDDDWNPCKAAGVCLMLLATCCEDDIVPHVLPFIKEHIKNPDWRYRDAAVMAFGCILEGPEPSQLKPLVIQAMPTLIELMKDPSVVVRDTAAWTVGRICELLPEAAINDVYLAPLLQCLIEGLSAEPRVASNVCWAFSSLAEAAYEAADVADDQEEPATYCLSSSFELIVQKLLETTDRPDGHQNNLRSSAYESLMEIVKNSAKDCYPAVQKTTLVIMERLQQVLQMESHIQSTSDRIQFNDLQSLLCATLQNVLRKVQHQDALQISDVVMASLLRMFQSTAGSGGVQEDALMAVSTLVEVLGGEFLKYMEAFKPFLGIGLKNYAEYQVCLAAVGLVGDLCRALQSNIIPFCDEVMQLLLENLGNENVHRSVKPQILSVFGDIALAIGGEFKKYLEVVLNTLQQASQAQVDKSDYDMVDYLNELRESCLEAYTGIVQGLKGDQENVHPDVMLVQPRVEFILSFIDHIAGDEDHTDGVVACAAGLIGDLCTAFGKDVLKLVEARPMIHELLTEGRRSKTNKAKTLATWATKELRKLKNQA

biological target: Importin subunit beta-1 (Homo sapiens) (UniProt Q14974); assay: qHTS Assay for Inhibitors of Rango (Ran-regulated importin-beta cargo) - Importin beta complex formation; details: Rango CFP/YFP FRET sensor + importin beta, 45 min; series mostly up to 92.2 µM; further: nearly all actives have a fitted effect of over 15% in size
Description: NIH Molecular Libraries Probe Production Centers Network [MLPCN] NIH Chemical Genomics Center [NCGC] MLPCN Grant: R03 MH090808-01A1 Assay Submitter (PI): Petr Kalab NCGC Assay Overview: The small GTPase Ran regulates transport of macromolecules between the nucleus and the cytoplasm (nuclear transport) and has important functions in mitotic spindle assembly, nuclear envelope (NE) formation and nuclear pore complex (NPC) assembly. RanGTP gradient is thought to promote spindle assembly by providing a spatial clue to microtubule nucleation and Aurora A activation. Because the localized release and binding of importin alpha cargo relays this spatial clue to SAFs, inhibitors of the Rango - importin beta complex can then be used in further understanding their role in cell cycle specifically in mitosis progression. […] Activation of Aurora A has been linked to different types of cancer and a number of Aurora kinase inhibitors are being developed as potential canter therapeutics therefore, identified inhibitors of this complex could be developed into potential anti-mitotic probes for cancer treatment. Purified recombinant proteins Rango and importin beta were provided by the assay submitter. The assay used a fluorescence resonance energy transfer (FRET) Rango biosensor that contains the IBB of human snurportin 1 flanked by yellow fluorescent protein (EYFP) at the amino terminus and cerulean CFP10 at the carboxy terminus. […] Inhibitors will therefore be identified based on the ability to interfere with the FRET signal decrease. DMSO treated and no importin beta (buffer only) wells were used as negative and positive controls respectively. FRET readings were obtained at two time points. FRET reading prior to importin beta addition (pre-read) were used flag potential compound interference; FRET reading after importin beta addition (post-read) were used to identify inhibitors using the FRET ratio parameter.
NCGC Assay Protocol Summary: Two and a half uL/well of Rango-buffer solution (50 nM Rango, 1x PBS, 1mM DTT, 0.02% Tween-20, 0.1% BSA final concentrations) was dispensed into 1536-well assay plates (Greiner, solid black medium-binding plates) with Aurora Discovery BioRAPTR Flying Reagent Dispenser (FRD; Beckton-Dickenson). Compound solution (23 nL) was transferred to the assay plate using Kalypsys pin tool equipped with a 1536-pin tool and incubated at room temperature for 5 min followed by a FRET pre-read using the PerkinElmer Envision plate reader. Two and a half uL/well of Importin beta - buffer solution (0.125 microM importin beta, 1x PBS, 1mM DTT, 0.02% Tween-20, 0.1% BSA final concentrations) were then added and incubated at room temperature giving a final reaction volume of 5uL. After 45min FRET post-read was obtained via the Envision plate reader using the same optics and settings as the pre-read (CFP/YFP optimized dual optical module D450/D505; excitation mirror CFP 430/24 nm; and emission filters CFP 486/10 nm and YFP 530/10 nm).
Potency means the concentration at half of the fitted maximal effect; tags describe the fitted curve by direction and shape.

Potency, active:
CC(C)(C)Nc1nc(-c2ccccn2)nc2ccccc12 58 µM, Cc1ccc(S(=O)(=O)CC(=O)Nc2nnc(C)s2)cc1 65.1 µM

Potency, inactive:
CC(C)=CCc1ccc(O)c(=O)cc1C(C)C, O=C(Nc1ccc2ccccc2c1[N+](=O)[O-])c1ccccc1, COc1ccc(Cl)cc1C=CC=NNC(=O)c1ccncc1, CC(C)(C)OC(=O)N1CCC(C(=O)Nc2cccc(C(=O)NCCc3ccccc3)c2)CC1, COC1=CC(=O)OC(C)(c2ccccc2)C1 (stereo not drawn), Cc1ccc(Nc2c(O)nc[nH]c2=O)cc1C, CCCN(CC(=O)Nc1ccccc1C)C(=O)c1ccc(OCC(=O)N2CCOCC2)c(OCC)c1, COc1ccc(-c2ccc3c(c2)[C@@H]2C[C@H](N(C)S(=O)(=O)c4ccccc4)[C@H]([C@H](C)O)C(=O)N2CC3)cc1, CC1(C)N=C(N)NC(Nc2ccc(Cl)cc2)=N1, CN(C(=O)c1cccc(NC(=O)Cc2ccc(NC(=O)C3CCN(C(=O)C4CCCCC4)CC3)cc2)c1)C1CCC1, CC(C)(C)c1nnc2sc(SCC(O)=C(C#N)c3nc4ccccc4[nH]3)nn2c1=O, Cc1ccc(S(=O)(=O)N2CCN(C(=O)c3cc(S(=O)(=O)N4CCOCC4)ccc3F)CC2)cc1, Cc1nn(-c2ncccn2)c2c1C(=O)CC(C)(C)C2Br (stereo not drawn), CCN(CC(=O)Nc1c(F)cccc1F)C(=O)Cc1cccs1, NC(=O)c1ccc(N2CCCC2)nc1, COc1cc2[nH]c(O)c(C=O)c2cc1OC, CC/C(=C\c1ccc(Cl)cc1)c1ccncc1, COc1ccc(Cl)cc1C=CC=Nc1ccc(S(N)(=O)=O)cc1, COc1ccc(CCNC(=O)c2ccc(NC(=O)CC3SC(N4CCCCC4)=NC3=O)cc2)cc1OC (stereo not drawn), CSCCC(NC(=O)COc1ccccc1)C(=O)N1CCN(c2cccc(C(F)(F)F)c2)CC1 (stereo not drawn), CCCCN1CC(COc2ccccc2)Oc2cccc(F)c2S1(=O)=O (stereo not drawn), O=C(NN=Cc1ccccc1)c1ccccc1, O=C(Nc1c(Br)cc2c(c1Br)Cc1cc([N+](=O)[O-])ccc1-2)C(Cl)Cl, CC(=O)OC1CCC2C3CCC4=C(CC(F)C(=O)C4)C3CCC12C (stereo not drawn), O=[N+]([O-])c1ccc(COc2ccccc2CN2CCOCC2)cc1, COc1cccc(CC(=NO)c2cccc(OC)c2)c1, NC(=O)C1(Nc2ccc(-c3ccccc3)cc2)CCCC1, O=C(O)C(=Cc1ccccc1[N+](=O)[O-])c1ccccc1, CCOC(=O)c1ccccc1NC(=O)CSc1nc2c(sc(=S)n2CC)c(=O)[nH]1, O=C(CCCCCCCC(=O)N1CCCCC1)N1CCCCC1, Nc1cc2c(cc1Br)-c1ccc(F)cc1C2=O, O=C1NC(c2ccccc2)Cc2ccncc21 (stereo not drawn), Cc1ccc(OCCNC(=O)c2cccc(S(=O)(=O)N3CCN(Cc4ccccc4)CC3)c2)cc1, O=C1CC(c2ccccc2)C(c2ccccc2)=NN1 (stereo not drawn), Nc1ccc2c(c1)C(=Cc1cccnc1)c1ccccc1-2, Oc1ccc(-c2nc3ccccc3nc2-c2ccc(O)cc2O)c(O)c1, O=C(Nc1ccccc1)Oc1cccc2cccnc12, O=[N+]([O-])c1ccc(NS(=O)(=O)c2ccccc2)c(Cl)c1, O=C(Cc1ccc(Cl)cc1)c1ccccc1, O=C1C(=O)N(c2ccccc2)C(c2ccccc2)C1c1ccccc1 (stereo not drawn), Cc1cc([N+](=O)[O-])ccc1NS(=O)(=O)c1ccccc1, O=C(c1ccc2c(c1)C(=O)N(Cc1ccncc1)C2=O)N1CCN(S(=O)(=O)c2ccc(OC(F)(F)F)cc2)CC1, O=S(=O)(Cc1ccc(Cl)cc1Cl)c1ccc(Cl)cc1, Cc1c(NS(=O)(=O)c2cccc(C(=O)Nc3ccc(SC(F)F)cc3)c2)c(=O)n(-c2ccccc2)n1C, C[n+]1cccc(C(=O)O)c1, CCCCN(C(=O)c1cccc(N2C(=O)c3ccccc3C2=O)c1)c1c(N)n(CCCC)c(=O)[nH]c1=O, CSCCC(NS(=O)(=O)c1ccc(C)cc1)C(=O)N(C)CC(=O)Nc1ccccc1Br (stereo not drawn), COc1ccccc1NC(=O)N(O)C1(C#N)CCCCC1, O=C(Nc1c[nH]c(=O)[nH]c1=O)OCc1ccccc1, COc1cc2c(cc1OC)C(Cc1cc(OC)c(OC)cc1[N+](=O)[O-])=NCC2, CN(O)C(=S)c1ccccc1, Cc1ccc(S(=O)(=O)c2cc3c(=O)n4cccc(C)c4nc3n(CCc3ccccc3)c2=N)cc1C, O=C1OC(Oc2ccc(Br)cc2)(c2ccccc2)c2ccccc21 (stereo not drawn), N#CC1(Nc2ccc(-c3ccc(Cl)cc3)cc2)CCCC1, C#CCOCCOCCOCCNc1nc(N2CCN(C(=O)Cn3cc(CCO)nn3)CC2)nc(N2CCN(C(=O)[C@H](CCCCN)n3cc(CCCC)nn3)CC2)n1, O=S1(=O)CCOC[C@H](Cc2ccccc2)N1Cc1ccccc1Br, Cc1nc2ccccc2c(C(=O)O)c1-c1ccccn1, Cc1ccc(Oc2nc(-c3ccccn3)nc3ccccc23)cc1, COc1cc2c(cc1CNC[C@H]1O[C@@H](n3cnc(C(N)=O)n3)[C@H](O)[C@@H]1O)OCO2, NC1=NOC(=O)C1C1CCCCC1 (stereo not drawn), NC(=S)NN=C1CCCC(C(F)(F)F)C1 (stereo not drawn), O=C(OC12CC3CC(CC(C3)C1)C2)c1ccc(NCc2cc(O)ccc2O)cc1, O=C(O)c1ccc([N+](=O)[O-])cc1Sc1ccsc1, CN(CCc1ccccc1)C(=O)c1cccc(NC(=O)Cc2cccc(NC(=O)C3CCCN(C(=O)C4CCC4)C3)c2)c1 (stereo not drawn), CN(C(=O)c1cccc(NC(=O)Cc2ccc(NC(=O)C3CCCN(C(=O)C4CC4)C3)cc2)c1)C1CC1 (stereo not drawn), C=CCN1C=C(C(=O)c2ccccc2)C(=O)CC1, Cc1nc(Nc2ccccc2C)c2cnn(C)c2n1, O=C(c1cccc(S(=O)(=O)N2CCCCCC2)c1)N1CCN(Cc2ccccc2)CC1, C=CCOC(=O)N1CCC2CC1c1cc(-c3ccc(OC)cc3)ccc12 (stereo not drawn), O=C(NCCc1ccccc1)c1c[nH]c2ccc(F)cc2c1=O, COc1ccc(CCC(=O)Nc2ccc(Cl)c(S(=O)(=O)N3CCOCC3)c2)cc1OC, O=C(CNC(=O)c1cc(S(=O)(=O)N2CCOCC2)ccc1N1CCCC1)Nc1ccc(F)c(F)c1, Cc1ccc(NC(=O)C(C)OC(=O)C2CC3CCCC(C2)C3=O)cc1S(=O)(=O)N1CCOCC1 (stereo not drawn), Cn1cc(C2OC(=O)c3ccccc32)c2ccccc21 (stereo not drawn), O=C(Nc1ccc(S(=O)(=O)N2CCOCC2)cc1)C1CCN(S(=O)(=O)c2ccc(Cl)cc2)CC1, CC1C(C)N(C(=O)CCl)c2ccccc2N1C(=O)CCl (stereo not drawn), NS(=O)(=O)c1ccc(CCNC(=O)c2ccc(Cl)c(S(=O)(=O)N3CCCCCC3)c2)cc1, O=C1c2ccccc2C(=O)N1CCCCCCN1C(=O)c2ccccc2C1=O, CC(C)C[C@H]1CN([C@@H](CC(C)C)CN2CCC[C@@H]2CN2C(=O)C(=O)NC[C@@H]2Cc2ccccc2)C(=O)C(=O)N1CCc1ccccc1, COc1ccc(-c2ccc3c(c2)C2CC3CCN2CCC#N)cc1 (stereo not drawn), CN(C)C(CNC(=O)c1cc2ccccc2o1)c1ccccc1 (stereo not drawn), CCCCNC1(C#N)CCN(Cc2ccccc2)CC1, NC(=O)C1(Nc2ccccc2Cl)CCCC1, COc1ccc(S(=O)(=O)N2CCc3ccccc32)cc1C(=O)Nc1cc(S(C)(=O)=O)ccc1Cl, Cc1cc(NC(=O)C(C)SCC(=O)Nc2cccc(S(=O)(=O)N3CCCCCC3)c2)no1 (stereo not drawn), NC(=O)c1ncn([C@@H]2O[C@H](CN=C3NS(=O)(=O)c4ccccc43)[C@@H](O)[C@H]2O)n1, Cc1cc([N+](=O)[O-])c(=O)[nH]c1C, O=C1OC(Cc2ccccc2)C(c2ccccc2)C1=O (stereo not drawn), O=C(Nc1ccn(CCCNCc2ccc3[nH]ccc3c2)c(=O)n1)OCc1ccccc1, CCCCNCCS(=O)(=O)NCc1ccccc1, CNc1nc(=O)n(C2CCCO2)cc1C (stereo not drawn), S=C(Nc1ccccc1)Nc1ccc2ccccc2c1, COc1ccc(S(=O)(=O)N2C[C@H]3CON(C)[C@H]3C[C@H]2c2cccc(Br)c2)cc1, Cc1ccc(-c2csc(C(C#N)=C(O)CN3CCN(C(=O)c4ccco4)CC3)n2)cc1, Cc1ccc(S(=O)(=O)N2CCC(C(=O)N3CCCCCCC3)CC2)cc1, CCCCC(=O)NC(c1ccc(OC)c(OC)c1)c1ccc2cccnc2c1O (stereo not drawn), CCC1(C)COC(c2ccc(OC)c(OC)c2)OC1 (stereo not drawn), CCC(C)C1(C2CCCC2)NC(=O)NC1=O (stereo not drawn), Cc1nn(-c2ccc(F)cc2)c(Cl)c1/C=C(/CCC(=O)O)c1nc2ccccc2s1, COc1cc(OC)c(C(=O)NNC(=O)c2ccc(NS(=O)(=O)c3cccs3)cc2)cc1OC, CC(=O)OCC1(O)CC23CCC4c5ccoc5CCC4(C)C2CCC1C3 (stereo not drawn), CC1CCCN(C(=O)Cn2c(=O)oc3cc(S(=O)(=O)N4CCCCC4C)ccc32)C1 (stereo not drawn), CCCCN(C(=O)CSCc1ccc(C)cc1)c1c(N)n(Cc2ccccc2)c(=O)[nH]c1=O, OCC1(CO)CC2(C1)CC(CO)(CO)C2, Cc1ccc(S(=O)(=O)CC(=O)Nc2sc(C)c(C)c2C(N)=O)cc1, Cc1ccc(S(=O)(=O)CCC(=O)Nc2nnc(CC(C)C)s2)cc1
